Source: ChEMBL document CHEMBL4145657, “Potent and Selective Tetrahydroisoquinoline Kappa Opioid Receptor Antagonists of Lead Compound (3 R)- N-[1 R)-1-(Cyclohexylmethyl)-2-methylpropyl]-7-hydroxy-1,2,3,4-tetrahydroisoquinoline-3-carboxamide (CDTic)” (J Med Chem, 2018)

Assay: Ratio of clearance in plasma to brain of Sprague-Dawley rat at 5 mg/kg, sc measured after 1 to 168 hrs post dose by LC/MS-MS method
Format: ADME, organism-based
Settings: in vivo

## CC(C)[C@@H](CC1CCCC1)NC(=O)[C@H]1Cc2ccc(O)cc2CN1
  Ratio: 6.1
